Patent publication US20120277236A1

Protein sequences, listed by entry. Tags and fused reporters are not part of them. Residues count along the entry.
UniProt P14780, 20-707 limits assumed: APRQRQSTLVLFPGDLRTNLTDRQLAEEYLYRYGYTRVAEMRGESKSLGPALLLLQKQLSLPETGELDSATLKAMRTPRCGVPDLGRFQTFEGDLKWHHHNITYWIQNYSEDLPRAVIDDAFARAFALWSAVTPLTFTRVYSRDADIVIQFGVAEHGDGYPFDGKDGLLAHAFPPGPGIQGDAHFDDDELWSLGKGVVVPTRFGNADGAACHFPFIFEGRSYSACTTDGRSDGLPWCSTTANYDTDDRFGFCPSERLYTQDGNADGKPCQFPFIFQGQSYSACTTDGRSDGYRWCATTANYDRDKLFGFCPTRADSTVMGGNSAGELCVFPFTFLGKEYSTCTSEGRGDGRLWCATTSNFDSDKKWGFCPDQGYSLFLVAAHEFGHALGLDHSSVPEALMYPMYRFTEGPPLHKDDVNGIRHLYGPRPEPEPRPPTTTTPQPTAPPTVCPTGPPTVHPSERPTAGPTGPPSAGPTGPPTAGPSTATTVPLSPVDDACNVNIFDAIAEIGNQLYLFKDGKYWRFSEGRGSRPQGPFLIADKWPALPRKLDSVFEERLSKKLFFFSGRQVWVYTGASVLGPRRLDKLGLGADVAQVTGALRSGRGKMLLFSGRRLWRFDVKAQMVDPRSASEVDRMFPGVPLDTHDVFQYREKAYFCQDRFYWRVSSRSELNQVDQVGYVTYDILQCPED
UniProt P14780, 107-707 limits assumed: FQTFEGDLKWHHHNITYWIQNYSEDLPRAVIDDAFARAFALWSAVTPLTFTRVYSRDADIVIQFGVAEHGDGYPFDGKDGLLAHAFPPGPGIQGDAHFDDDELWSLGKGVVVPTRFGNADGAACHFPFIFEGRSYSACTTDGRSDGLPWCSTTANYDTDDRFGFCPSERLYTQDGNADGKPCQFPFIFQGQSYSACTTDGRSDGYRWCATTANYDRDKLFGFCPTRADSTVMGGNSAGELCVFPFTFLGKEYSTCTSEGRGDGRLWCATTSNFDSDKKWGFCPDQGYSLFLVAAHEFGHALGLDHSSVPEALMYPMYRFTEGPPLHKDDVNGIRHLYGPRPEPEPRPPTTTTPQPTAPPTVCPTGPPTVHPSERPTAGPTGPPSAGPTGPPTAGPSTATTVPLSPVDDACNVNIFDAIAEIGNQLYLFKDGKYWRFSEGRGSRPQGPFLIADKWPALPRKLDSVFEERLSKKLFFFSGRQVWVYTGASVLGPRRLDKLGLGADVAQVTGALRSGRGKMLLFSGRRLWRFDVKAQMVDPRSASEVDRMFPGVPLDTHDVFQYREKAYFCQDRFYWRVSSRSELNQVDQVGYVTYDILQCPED

How the values were obtained:
[1] = tested on: MMP-9 expression in HT-1080 cells; test: Western blot of MMP-9 expression; conditions: 100 μM, 18 hours, Western blotting
[2] = tested on: ERK1/2 activation in COS-1 cells expressing MMP-9 cDNA; test: Western blot of ERK1/2 activation; conditions: COS-1 cells expressing MMP-9, serum starved 18 hours, 100 μM
MDA-MB-435 cells = test: Cell invasion assay, MDA-MB-435; conditions: data not shown
MMP-9 homodimer = MMP-9 homodimer (Homo sapiens, UniProt P14780); test: Co-immunoprecipitation assay of MMP-9 homodimerization; conditions: COS-1 cells with proMMP-9/Myc and proMMP-9/HA, 100 μM
[3] = tested on: HeLa cells stably expressing MT1-MMP-GFP; test: 3D invasion assay, MT1-MMP-mediated cell invasion; conditions: 18 hours at 37° C.
HT-1080 cells = test: 3D type I collagen invasion assay, HT-1080; conditions: 100 μM, 18-hour incubation
APMA-activated MMP-9 = APMA-activated MMP-9 (Homo sapiens, UniProt P14780); test: Fluorogenic peptide assay of MMP-9 catalytic activity; conditions: 100 μM, APMA-activated MMP-9, fluorogenic MCA peptide
[4] = tested on: MDA-MB-435/GFP tumor xenografts; test: MDA-MB-435/GFP tumor xenograft in mice; conditions: 20 mg/kg
COS-1 cells = test: CellTiter-Glo cell viability / cytotoxicity assay; conditions: 24 hours

CCCc1cc(=O)nc(SCC(=O)Nc2ccc(OC(F)F)cc2)[nH]1
effect on MMP-9 expression [1]: No effect on MMP-9 expression | activation of ERK1/2 [2]: decreased activation of ERK1/2 was observed | MDA-MB-435 cell invasion (MDA-MB-435 cells): Inhibition of MDA-MB-435 cell invasion was also observed | MMP-9 homodimer formation (MMP-9 homodimer): blocked MMP-9 homodimer formation | effect on MT1-MMP-mediated cancer cell invasion [3]: did not interfere with MT1-MMP-mediated cancer cell invasion | cell invasive ability of HT-1080 cells (HT-1080 cells): significantly inhibited | inhibition of catalytic activity of MMP-9 (APMA-activated MMP-9): did not inhibit the catalytic activity of MMP-9 | body weight and other signs of toxicity ([4]; 14-week period): No significant change in body weight nor other signs of toxicity | dimensions of tumor foci area in the lung ([4]; 6 days per week): significantly decreased | percent of mice displaying lung metastases ([4]; 6 days per week): significantly decreased | tumor incidence ([4]; 6 days per week): unaffected | extent of lung metastasis ([4]; 6 days per week, lung slices by fluorescent microscopy): dramatically reduced | tumor growth ([4]; intraperitoneal or intratumoral on alternating days, 6 days per week): profound delay in tumor growth | LD50 (COS-1 cells): 3.5 ± 0.3 mM
